From patent US20200199530A1, “METHODS OF DIFFERENTIATING STEM CELL-DERIVED ECTODERMAL LINEAGE PRECURSORS” (MEMORIAL SLOAN-KETTERING CANCER CENTER, priority 2017, published 2020) come the findings set out here.

Entries after “also recorded” stand apart in the source; their conditions may differ.

The subject of the test is hPSC-derived pituitary-lineage cells. Briefly: Dorsal-ventral patterning of pituitary cells with FGF8 and BMP2. Type of test: cell-based, human. Here is the method: For standard (unless mentioned otherwise in the text) pituitary maturation, medium on day 30 was changed to “E6 only” for additional 30 days. For patterning experiments (indicated in the text) E6 medium was supplemented with either high concentrations of FGF8 (100 ng/ml, dorsalize), high concentrations of BMP2 (20 ng/ml, ventralize) or intermediate concentrations of both (FGF8 50 ng/ml, BMP2 10 ng/ml).
Total RNA was extracted from at least 3 independent experiments using the TRIzol (Fisher Scientific) reagent in combination with Phase-lock tubes (5Prime) according to the manufactures protocol. 1 μg of total RNA was reverse transcribed into cDNA using iScript (BioRad). For quantitative RT PCR the present example used the SSoFast EvaGreen Mix (BioRad) in combination with QuantiTect primer assays (Qiagen) on a BioRad CFX96 Thermal Cycler. All reactions were run according to the manufacturer's protocol. Results are calculated using the ΔΔCt method (Livak and Schmittgen, 2001).
For single cell PCR analysis cells were detached using Accutase. After filtering through a 40 μm cell strainer DAPI negative cells were sorted on a BDFACS Aria III machine, essentially cleaning up the cell preparation of debris and dead cells. Sorted cell suspension was adjusted to a concentration of 400 000 cells/ml. Single cells were captured using the Fluidigm C1 system according to the manufactures manual. Capture rate of for each C1 chip was confirmed microscopically using a standard tissue culture bright filed microscope. Capture rates were as follows: day 30: 91% (87/96) day 60: 94% (90/96) day 60 FGF8: 93% (89/96) day 60 FGF8/BMP2: 89% (85/96) day 60 BMP2: 93% (89/96). Cells were lysed, RNA was extracted and transcribed into cDNA using the C1 in combination with wet-lab tested Fluidigm DELTAgene assays (FIG. 27) following the manufactures protocol. Wet-lab tested DELTAgene assays were purchased directly from Fluidigm. The resulting cDNA was diluted 1:5 and subjected to Single cell PCR amplification using the Fluidigm BioMark system in combination with EvaGreen chemistry according to the manufactures manual (“Fast Gene Expression Analysis Using EvaGreen on the BioMark or BioMark HD System”). PCR was run using a Fluidigm 96.96 Dynamic Array. Each primer pair was run in technical duplicates on the chip. Only single cells with consistent amplification results between the technical primer replicates were considered to minimize false positive calls on the expense of increasing the number of false negatives. Overall discrepancy rate was low (>3% per primer pair). Expression data was analyzed using the Fluidigm Real-Time PCR analysis software in combination with the Fluidigm SINGuLAR Analysis Toolset for R (Version 3.0.2 (2013-09-25) “Frisbee Sailing”).
After washing the cells once with PBS, cells were fixed with 4% (v/v) paraformaldehyde for 20 min, washed twice with PBS, permeabilized using 0.1% (v/v) Triton X-100 in PBS, Cells were blocked with 10% (v/v) FCS in PBS for 1-5 h at room temperature. Cells were incubated with primary antibodies diluted in 2% FCS (v/v) in PBS at 4° C. overnight. A list of the primary antibodies used in this study is provided as FIG. 28. […] After an additional 2 washing steps, fluorescence images of the cells were taken using an Olympus IX71 inverted microscope equipped with a Hamamatsu ORCA CCD camera.

The mark [1] stands for this setting: single cell qRT-PCR, day 60, high concentrations.

B1: BMP2: activator of BMP signaling, ventralizing agent (protein, UniProt P12643 283-396, looked up)
Bone morphogenetic protein 2: QAKHKQRKRLKSSCKRHPLYVDFSDVGWNDWIVAPPGYHAFYCHGECPFPLADHLNSTNHAIVQTLVNSVNSKIPKACCVPTELSAISMLYLDENEKVVLKNYQDMVVEGCGCR
Turning to B1, under “bulk qRT-PCR, day 60, FIG. 20A”, the “ventral cell type gene expression (FSHB, LHB)” value was “significantly upregulated; also recorded: induced a more ventral cell identity”. Also, the “hormone expressing cells by immunofluorescence” value (day 60, FIG. 20D/20E) was “FSH was the most abundant cell type”. The “cells expressing POMC” value (day 60, single cell qRT-PCR, high concentrations (FGF8 100 ng/ml, BMP2 20 ng/ml)) was found to be 40%. For the same molecule, under setting [1], the “number of ACTH+ dorsal cell types” value is “decreased”; the “number of ventral cell types expressing FSHB and LHB” value is “increased”.
